Drawing on patent publication US11667628B2, “Compounds for imaging tau proteins that accumulate in brain” (National Institutes for Quantum and Radiological Science …, priority 2012, dated 2023), this text covers EC50 for one molecule.

The chains behind the UniProt entries cited, without tags or fusion partners. Residues count along the entry.
UniProt P05067, 672-711 limits assumed: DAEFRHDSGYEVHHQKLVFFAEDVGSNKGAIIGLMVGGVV

A word on the EC50: it is the concentration needed to bring the measured effect to its halfway point.

Each structure is given as a SMILES string.

One assay has as its target Aβ40 fibrils (Homo sapiens, UniProt P05067). Description: In vitro fluorometric binding assay, Aβ40 fibrils. To be noted: average±SE; concentration giving half of maximum fluorescence intensity.
For assay [1], the target named is Human T40 (the longest tau isoform formed with 441 amino acid residues) fibrils (Homo sapiens, UniProt P10636). Kind of assay: In vitro fluorometric binding assay, recombinant T40 tau fibrils. Conditions: average±SE; concentration giving half of maximum fluorescence intensity.

Turning to `Cc1ccc2c(c1)sc(-c1ccc(N(C)C)cc1)[n+]2C.[Cl-]` [Thioflavin-T, reference compound], the values for the EC50 (on Aβ40 fibrils; in assay [1]) were 1460 nM and 818 ± 231 nM, respectively.
